Test results reported in patent publication US20120244566A1.
Read-outs that look alike come from different tables or passages of the source.

Amino acid sequences for entries named in this document (tags omitted). Residues count along the entry.
UniProt O15530, whole entry: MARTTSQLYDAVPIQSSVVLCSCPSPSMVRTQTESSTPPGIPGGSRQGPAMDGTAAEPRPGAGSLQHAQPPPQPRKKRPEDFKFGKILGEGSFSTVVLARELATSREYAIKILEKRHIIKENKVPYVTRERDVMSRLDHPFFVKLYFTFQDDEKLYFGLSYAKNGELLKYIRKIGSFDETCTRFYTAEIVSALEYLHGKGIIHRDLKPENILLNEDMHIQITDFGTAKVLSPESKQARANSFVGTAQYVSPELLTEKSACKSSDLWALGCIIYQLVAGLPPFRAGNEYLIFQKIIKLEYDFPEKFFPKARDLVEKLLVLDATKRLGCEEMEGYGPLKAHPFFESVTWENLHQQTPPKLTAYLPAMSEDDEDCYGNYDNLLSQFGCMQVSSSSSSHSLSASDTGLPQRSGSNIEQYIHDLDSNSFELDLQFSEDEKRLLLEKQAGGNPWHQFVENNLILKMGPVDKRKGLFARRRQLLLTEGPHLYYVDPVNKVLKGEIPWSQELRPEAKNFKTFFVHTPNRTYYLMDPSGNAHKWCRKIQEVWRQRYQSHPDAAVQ
UniProt O15530, 51-359 limits assumed: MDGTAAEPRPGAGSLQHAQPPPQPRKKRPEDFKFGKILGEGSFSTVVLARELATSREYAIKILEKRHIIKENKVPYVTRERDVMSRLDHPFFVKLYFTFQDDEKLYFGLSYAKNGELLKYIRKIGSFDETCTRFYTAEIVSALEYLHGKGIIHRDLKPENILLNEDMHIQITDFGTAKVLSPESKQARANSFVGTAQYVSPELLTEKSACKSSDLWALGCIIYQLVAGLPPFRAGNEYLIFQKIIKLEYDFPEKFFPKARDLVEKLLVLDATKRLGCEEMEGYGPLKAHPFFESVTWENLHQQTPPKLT

Experiments:
[1] = target: T1, catalytic domain of PDK1 (Homo sapiens, UniProt O15530); assay: Omnia kinetic assay, PDK1 inhibition, without TDA 2.0; details: read-out: Ki (nM, Omnia), 20 nM catalytic domain of PDK1, 50 μM ATP, Ki app converted into Ki
Method: Enzyme inhibition—Inhibition studies were conducted using two assay formats, Omnia and Caliper. For the Omnia assay, K1^app studies were conducted in the presence of 20 nM catalytic domain of PDK1, 50 μM ATP and 3 μM PDK1-Onmia-peptide in a 50 mM Hepes, 5 mM MgCl2, 0.01% Brij-35, 1 mM DTT assay buffer at pH 7.4. The increase of fluorescence (λex=360 nm and λem=485 nm) was recorded continuously using a Safire TECAN plate reader. For the Caliper assay, the Ki^app constant for full-length PDK1 alone was determined in the presence of 25 nM enzyme. […]
Ki^app and Ki were calculated by fitting the experimental data to the following equations (J. F. Morrison Kinetics of the reversible inhibition of enzyme catalysed reactions by tight-binding inhibitors. Biochim. Biophys. Acta 185, (1969), 269-286): […]
The effect of liposomes on the PDK1 activity was also evaluated in the presence of PDK1 inhibitors from the carbonyl-4-amino-pyrrolopyrimidine series. […] The Ki values obtained using the Omnia assay were determined without TDA 2.0™ as opposed to the values determined using the Caliper assay. […] One selective PDK1 inhibitor from the carbonyl-4-amino-pyrrolopyrimidine series, PF-5168899, was also evaluated to prevent the activation of AKT using a cascade biochemical assay. […]

[2] = target: full-length PDK1 (Homo sapiens, UniProt O15530); assay: Caliper mobility shift assay, PDK1 inhibition, with TDA 2.0
Method: (§1) Enzyme inhibition—Inhibition studies were conducted using two assay formats, Omnia and Caliper. For the Omnia assay, K1^app studies were conducted in the presence of 20 nM catalytic domain of PDK1, 50 μM ATP and 3 μM PDK1-Onmia-peptide in a 50 mM Hepes, 5 mM MgCl2, 0.01% Brij-35, 1 mM DTT assay buffer at pH 7.4. The increase of fluorescence (λex=360 nm and λem=485 nm) was recorded continuously using a Safire TECAN plate reader. For the Caliper assay, the Ki^app constant for full-length PDK1 alone was determined in the presence of 25 nM enzyme. […] Both sets of Caliper inhibition study were conducted with 2.5 μM TDA 2.0™, 1 mM ATP and 5 μM peptide in 50 mM Tris buffer, 10 mM MgCl2, 0.01% Tween-20 pH 7.4 with 5% DMSO. The enzyme, the peptide and various amounts of inhibitor were preincubated for 15 min, prior addition of ATP to the reaction media.
(§2) Ki^app and Ki were calculated by fitting the experimental data to the following equations (J. F. Morrison Kinetics of the reversible inhibition of enzyme catalysed reactions by tight-binding inhibitors. Biochim. Biophys. Acta 185, (1969), 269-286):
(§3) [E]o and [I]o are the total active enzyme and inhibitor concentrations, respectively; Ki is the inhibition binding constant; Vi and Vo are the rates of peptide phosphorylation in the presence or in the absence of inhibitor, respectively; [A]o is the total ATP concentration.
The effect of liposomes on the PDK1 activity was also evaluated in the presence of PDK1 inhibitors from the carbonyl-4-amino-pyrrolopyrimidine series. A comparative study was conducted in two different assay formats, Omnia kinetic assay and Caliper mobility shift assay. The Ki values obtained using the Omnia assay were determined without TDA 2.0™ as opposed to the values determined using the Caliper assay. […] One selective PDK1 inhibitor from the carbonyl-4-amino-pyrrolopyrimidine series, PF-5168899, was also evaluated to prevent the activation of AKT using a cascade biochemical assay. […] This inhibitor was used as a tool to evaluate the inhibition of PDK1 upon downstream biomarkers such as the activation of AKT. […] Under these circumstances, selective inhibition of PDK1 could only have a limited effect upon the rest of AKT pathway.

[3] = target: T1, catalytic domain of PDK1; details: read-out: Ki (nM, Omnia); Omnia format; data from Murphy S et al (footnote a); cited from earlier work
[4] = system: AKT1; assay: Caliper cascade assay: activation of inactive AKT1 by PDK1 and mTOR with TDA 2.0
Method: AKT activation in the presence of mTOR and PDK1—Activation of AKT1 and AKT2 were conducted in Tris buffer with 2% DMSO. The reaction was conducted with 25 nM unactivated AKT(1 and 2), 25 nM mTOR, 2.5 nM PDK1, and 2.5 μM TDA 2.0™. The reaction was initiated with 5 μM AKT substrate (SFAM-GRPRTSSFAEG-CONH2) and 1 mM ATP and the rate of substrate conversion was measured on a LabChip EZ-Reader. The instrument was set up to collect aliquots from the assay mixture at regular intervals. The upstream, downstream voltages and the pressure were set to −2800 V, −380 V, and 0.8 psi, respectively.
as §1, §2, §3

[5] = read-out: Ki (nM, Caliper), 25 nM full-length PDK1, 2.5 μM TDA 2.0, 1 mM ATP, Ki app converted into Ki

Row | Compound | Ki [1] | Ki [2, 5] | Ki [3] | Ki app for PDK1 ([2]; full-length PDK1, TDA 2.0, high ATP (1 mM)) | Ki value for PDK1 ([2]; in the presence and in the absence of lipid vesicles) | Ki ([2]; read-out: Ki app for PDK1, full-length PDK1, TDA 2.0, high ATP (1 mM)) | Ki ([2]; read-out: Ki for PDK1, full-length PDK1, TDA 2.0, 1 mM ATP) | Ki app for preventing activation of AKT1 in cascade assay ([4]; 25 nM inactive AKT1, 25 nM mTOR, 2.5 nM full-length PDK1, 2.5 μM TDA 2.0, 1 mM ATP) | fold increase of Ki app, AKT1 cascade compared to PDK1 ([4]; AKT1 cascade Ki app versus PDK1 Ki app) | Ki ([4]; read-out: Ki app for preventing activation of AKT1 in cascade assay, 25 nM inactive AKT1, 25 nM mTOR, 2.5 nM full-length PDK1, 2.5 μM TDA 2.0, 1 mM ATP)
1 | CC(C)n1cc(C(=O)c2cncc(NC3CCCC3c3ccccc3)n2)c2c(N)ncnc21 (racemic) | 2.3 nM | 10.6 nM |  |  |  |  |  |  |  | 
2 | CC(C)n1cc(C(=O)c2cncc(N[C@@H]3CCC[C@@H]3n3cccn3)n2)c2c(N)ncnc21 | 0.2 nM | 0.6 nM |  |  |  |  |  |  |  | 
3 | CC(C)n1cc(C(=O)c2cncc(N[C@@H]3CCO[C@@H]3c3ccc(F)cc3)n2)c2c(N)ncnc21 |  | 1.8 nM | 1.25 nM |  |  |  |  |  |  | 
4 | CC(=O)N1CC[C@@H](Nc2cncc(C(=O)c3cn(C(C)C)c4ncnc(N)c34)n2)[C@H]1c1ccccc1 |  | 0.3 nM | 2.5 nM | nM range | nM range | 31.5 nM | 0.31 nM | μM range | 70 fold | 1530 nM
